# The list shows a part of the results, in another mix than the full data. Records with an inconclusive call do not appear. Some structures show a salt or complex split into parts, the way the source records it. Active and inactive are the calls of the source. Calls follow the shape of the dose curve; as a rule, active = well fitted inhibition curve with a large enough effect; inconclusive = small, poorly fitted or top-dose-only effect, or another doubt; inactive = no such curve, though single readings can be large or run the other way.
# The chains behind the UniProt entries cited, without tags or fusion partners.
# UniProt O94925, whole entry: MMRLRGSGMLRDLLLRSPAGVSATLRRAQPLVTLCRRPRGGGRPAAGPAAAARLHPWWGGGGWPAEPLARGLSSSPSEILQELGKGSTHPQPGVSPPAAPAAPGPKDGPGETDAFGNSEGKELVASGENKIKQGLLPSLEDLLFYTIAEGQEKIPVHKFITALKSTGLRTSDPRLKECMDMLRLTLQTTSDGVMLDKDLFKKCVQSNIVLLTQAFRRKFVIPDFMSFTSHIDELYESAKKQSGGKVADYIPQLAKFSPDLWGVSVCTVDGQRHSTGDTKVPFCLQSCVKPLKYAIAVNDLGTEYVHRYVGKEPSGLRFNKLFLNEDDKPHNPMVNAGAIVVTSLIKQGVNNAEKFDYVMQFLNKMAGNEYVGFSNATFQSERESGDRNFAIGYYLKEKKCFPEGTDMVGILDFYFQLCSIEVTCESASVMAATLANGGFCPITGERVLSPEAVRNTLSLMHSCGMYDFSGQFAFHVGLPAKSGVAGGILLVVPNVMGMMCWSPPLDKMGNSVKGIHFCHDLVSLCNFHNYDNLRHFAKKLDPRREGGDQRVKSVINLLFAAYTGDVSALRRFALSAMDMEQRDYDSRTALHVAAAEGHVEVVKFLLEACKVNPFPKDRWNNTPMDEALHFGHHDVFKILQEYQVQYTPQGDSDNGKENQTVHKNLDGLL
# Target: Glutaminase kidney isoform, mitochondrial (Homo sapiens) (UniProt O94925)
# Experiment: qHTS for Inhibitors of Glutaminase (GLS)
# Settings: GLS enzymatic activity, qHTS titration; at 45.5 µM (top of the series)
# % is scaled to controls: 0 for no effect and ±100 for the full control effect.
row,SMILES,"activity change, negative = inhibition"
1,CC(C)(C)OC(=O)N1CCC(Nc2ccccc2)CC1,inactive: 22.5%
2,O=C(O)C1(Nc2ccccc2)CCN(Cc2ccccc2)CC1,inactive: 44%
3,NN(c1ccccc1)C1CCN(CCc2ccccc2)CC1,inactive: -28.3%
4,CCCOc1ccc(C(=O)NCC2(N(C)C)CCCCC2)cc1,inactive: 6.8%
5,O=c1[nH]c2ccccc2n1C1CCN(C(c2cc3ccccc3o2)c2nnnn2C2CCCC2)CC1 (stereo unspecified),inactive: 18%
6,CCOc1ncccc1C(=O)NCC1(N2CCOCC2)CCCCC1,inactive: -6.5%
7,CN1CCC(Nc2ccc(F)c(Cl)c2)CC1,inactive: 2.17%
8,CN1CCC(Nc2ccc(Cl)cc2)CC1,inactive: 31.2%
9,COc1cc(C(=O)NCC2(N3CCOCC3)CCCCC2)cc(OC)c1OC,inactive: 13.9%
10,COc1cccc(C(c2nnnn2C2CCCC2)N2CCC(n3c(=O)[nH]c4ccccc43)CC2)c1OC (stereo unspecified),inactive: -1.1%
11,COc1cc(OC)cc(C(=O)NCC2(N3CCOCC3)CCCCC2)c1,inactive: 8.05%
12,CCC(CO)(C(=O)OC1CN2CCC1CC2)c1ccccc1 (stereo unspecified),inactive: -0.391%
13,Cc1ccc(C(=O)NCC2(N3CCCCC3)CCCCC2)o1,inactive: 9.17%
14,Cc1ccc(Nc2c([N+](=O)[O-])cc([N+](=O)[O-])cc2[N+](=O)[O-])cc1,inactive: -3.39%
15,Fc1ccccc1NC1CCN(Cc2ccccc2)CC1,inactive: -1.75%
16,Cc1ccc(NC2(C#N)CCN(Cc3ccccc3)CC2)cc1,inactive: 1.03%
17,CC(=O)N(c1ccccc1)C1CCNCC1,inactive: -6.35%
18,COc1cccc(C(c2nnnn2C2CCCCC2)N2CCC(n3c(=O)[nH]c4ccccc43)CC2)c1OC (stereo unspecified),inactive: 11.1%
19,CN(C)C1(CNC(=O)c2ccc(C(C)(C)C)cc2)CCCCC1,inactive: 1.2%
20,CCC(c1nnnn1C1CCCCC1)N1CCC(n2c(=O)[nH]c3ccccc32)CC1 (stereo unspecified),inactive: 15.7%
21,O=c1[nH]c2ccccc2n1C1CCN(C(c2ccnc3ccccc23)c2nnnn2C2CCCCC2)CC1 (stereo unspecified),inactive: -6.86%
22,COc1cc(OC)cc(C(=O)NCC2(N3CCCCC3)CCCCC2)c1,inactive: -5.34%
23,Cc1ccccc1C(=O)NCC1(N(C)C)CCCCC1,inactive: 0.915%

row,SMILES,"activity change, negative = inhibition"
1,CC(C)(C)c1ccc(C(=O)NCC2(N3CCOCC3)CCCCC2)cc1,inactive: 14.3%
2,O=C(NCC1(N2CCCCC2)CCCCC1)c1ccco1,inactive: -1.97%
3,Cn1c(=O)[nH]cc(N(CCCl)CCCl)c1=O,inactive: -3.4%
4,CN(C)c1ccc(C(=O)NCC2(N3CCCCC3)CCCCC2)cc1,inactive: 0.621%
5,Cc1ccccc1NC1(C#N)CCN(Cc2ccccc2)CC1,inactive: 16.7%
6,CC(C)(C)n1nnnc1C(c1ccnc2ccccc12)N1CCC(n2c(=O)[nH]c3ccccc32)CC1 (stereo unspecified),inactive: 5.29%
7,COc1ccc(C(c2nnnn2C2CCCCC2)N2CCC(n3c(=O)[nH]c4ccccc43)CC2)cc1 (stereo unspecified),inactive: -0.565%
8,CCN1CCC(Nc2cccc(F)c2)CC1,inactive: 1.83%
9,CCOC(=O)C(CC)C1=NC(C)(C)Cc2ccccc21.O=[N+]([O-])c1cc([N+](=O)[O-])c(O)c([N+](=O)[O-])c1 (stereo unspecified),inactive: 3.07%
10,N#Cc1ccc(C(=O)NCC2(N3CCCCC3)CCCCC2)cc1,inactive: -12%
11,O=C(NCC1(N2CCOCC2)CCCCC1)c1ccccc1[N+](=O)[O-],inactive: 5.89%
12,O=C(NCC1(N2CCOCC2)CCCCC1)c1ccc([N+](=O)[O-])cc1,inactive: 1.52%
13,CC(C)(C)OC(=O)N1CCC(N(C(=O)c2ccccc2)c2ccc(Cl)cc2)CC1,inactive: -9.43%
14,CC(C)(C)n1nnnc1C(c1cccc2ccccc12)N1CCC(n2c(=O)[nH]c3ccccc32)CC1 (stereo unspecified),inactive: 1.65%
15,CN(C)C1(CNC(=O)c2cccc(C#N)c2)CCCCC1,inactive: 6.77%
16,c1ccc(CN2CCC(Nc3ccccc3)CC2)cc1,inactive: 31%
17,CCCN1CCC(Nc2cc(OC)cc(OC)c2)CC1,inactive: 5.94%
18,O=c1[nH]c2ccccc2n1C1CCN(C(c2ccccc2)c2nnnn2C2CCCC2)CC1 (stereo unspecified),inactive: -1.61%
19,O=C(NCC1(N2CCOCC2)CCCCC1)c1ccccc1,inactive: 5.08%
20,Cc1cc(N(CCCl)CCCl)ccc1C=O,inactive: 3.48%
21,O=c1[nH]c2ccccc2n1C1CCN(C(c2cccs2)c2nnnn2C2CCCCC2)CC1 (stereo unspecified),inactive: 3.88%
22,COc1ccc(C(=O)NCC2(N3CCOCC3)CCCCC2)cc1OC,inactive: 9.33%
23,O=c1[nH]c2ccccc2n1C1CCN(C(c2ccnc3ccccc23)c2nnnn2C2CCCC2)CC1 (stereo unspecified),inactive: -8.67%

row,SMILES,"activity change, negative = inhibition"
1,CCCCn1nnnc1C(c1ccccc1)N1CCC(n2c(=O)[nH]c3ccccc32)CC1 (stereo unspecified),inactive: -1.91%
2,COc1cc(C(=O)NCC2(N3CCOCC3)CCCCC2)cc(OC)c1C,inactive: 12.9%
3,O=C(NCC1(N2CCOCC2)CCCCC1)c1cc(Br)ccc1Cl,inactive: 12.1%
4,O=C(OC1CN2CCC1CC2)C1c2ccccc2C=Cc2ccccc21 (stereo unspecified),inactive: -1.67%
5,CCc1cc(C(=O)NCC2(N3CCCCC3)CCCCC2)sc1C,inactive: 7.36%
6,O=C(O)c1cccc(Nc2c([N+](=O)[O-])cc([N+](=O)[O-])cc2[N+](=O)[O-])c1,inactive: -0.73%
7,O=c1[nH]c2ccccc2n1C1CCN(C(c2cccs2)c2nnnn2C2CCCC2)CC1 (stereo unspecified),inactive: 13%
8,CCCCn1nnnc1C(c1cccc(OC)c1OC)N1CCC(n2c(=O)[nH]c3ccccc32)CC1 (stereo unspecified),inactive: 1.64%
9,COc1cccc(C(c2nnnn2C(C)(C)C)N2CCC(n3c(=O)[nH]c4ccccc43)CC2)c1OC (stereo unspecified),inactive: 10.1%
10,CCOC(=O)N1CCC(Nc2ccc(C)cc2)CC1,inactive: 4.55%
11,N/C(=N\O)c1c(N)no[n+]1[O-],inactive: 19.2%
12,COc1cc(OC)c(C(=O)NCC2(N(C)C)CCCCC2)cc1OC,inactive: -11.5%
13,O=C(NCC1(N2CCOCC2)CCCCC1)c1cc(F)c(F)cc1Cl,inactive: 21.1%
14,CCC(c1nnnn1C(C)(C)C)N1CCC(n2c(=O)[nH]c3ccccc32)CC1 (stereo unspecified),inactive: 2.02%
15,CCCCn1nnnc1C(c1ccnc2ccccc12)N1CCC(n2c(=O)[nH]c3ccccc32)CC1 (stereo unspecified),inactive: -5.09%
16,CC(C)c1ccc(NC2CCN(C(=O)OC(C)(C)C)CC2)cc1,inactive: 0%
17,CCCCn1nnnc1C(c1ccccc1OC(F)(F)F)N1CCC(n2c(=O)[nH]c3ccccc32)CC1 (stereo unspecified),inactive: -7.03%
18,COc1ccc(CN(CCCl)CCCl)cc1Cl,inactive: -0.945%
19,O=[N+]([O-])c1cc([N+](=O)[O-])c(OC2CCCCC2O)c([N+](=O)[O-])c1 (stereo unspecified),inactive: -10.1%
20,CN(C)c1cccc(C(=O)NCC2(N3CCCCC3)CCCCC2)c1,inactive: 9.49%
21,O=[N+]([O-])c1cc([N+](=O)[O-])c(Nc2ccc(Cl)cc2)c([N+](=O)[O-])c1,inactive: 10.9%
22,COc1ccc(C(c2nnnn2C2CCCC2)N2CCC(n3c(=O)[nH]c4ccccc43)CC2)cc1 (stereo unspecified),inactive: -9.41%
23,Cc1ccc(C(=O)NCC2(N(C)C)CCCCC2)o1,inactive: 1.28%

row,SMILES,"activity change, negative = inhibition"
1,CCCCOc1ccccc1C(=O)NCC1(N2CCOCC2)CCCCC1,inactive: 9.44%
2,CCCOc1ccc(C(=O)NCC2(N(C)C)CCCCC2)cc1OC,inactive: 2.84%
3,O=C(NCC1(N2CCOCC2)CCCCC1)c1ccccc1Br,inactive: 15.1%
4,O=C(OC1CN2CCC1CC2)c1ccc([N+](=O)[O-])cc1 (stereo unspecified),inactive: -0.435%
5,O=C(NCC1(N2CCCCC2)CCCCC1)c1cncc(Br)c1,inactive: 10.4%
6,COc1ccc2c(c1O)-c1c(O)c(OC)cc3c1[C@H](C2)[N+](C)(C)CC3.O=[N+]([O-])c1cc([N+](=O)[O-])c([O-])c([N+](=O)[O-])c1[O-],inactive: 38.8%
7,CN1CCC(Nc2cccc(F)c2)CC1,inactive: 20.3%
8,CCN1CCC(Nc2ccc(Cl)cc2)CC1,inactive: 12%
9,N#CC1(Nc2ccccc2)CCN(CCc2ccccc2)CC1,inactive: -2.67%
10,O=c1[nH]c2ccccc2n1C1CCN(C(c2ccccc2OC(F)(F)F)c2nnnn2C2CCCC2)CC1 (stereo unspecified),inactive: -5.02%
11,CSc1ccc(C(=O)NCC2(N3CCOCC3)CCCCC2)cc1,inactive: 20%
12,O=C(NCC1(N2CCCCC2)CCCCC1)c1cccc([N+](=O)[O-])c1,inactive: 2.26%
13,CCOc1ccc(C(=O)NCC2(N3CCOCC3)CCCCC2)cc1,inactive: 17.4%
14,CC(C)(C)n1nnnc1C(c1ccccc1OC(F)(F)F)N1CCC(n2c(=O)[nH]c3ccccc32)CC1 (stereo unspecified),inactive: 10.3%
15,O=C(NCC1(N2CCCCC2)CCCCC1)c1ccc(OC(F)F)cc1,inactive: 1.13%
16,COc1cc(C(=O)NCC2(N3CCCCC3)CCCCC2)ccc1OC(F)F,inactive: -22.9%
17,O=C(NCC1(N2CCOCC2)CCCCC1)c1cc(=O)[nH]c2ccccc12,inactive: 15.5%
18,CCCCn1nnnc1C(c1cccc2ccccc12)N1CCC(n2c(=O)[nH]c3ccccc32)CC1 (stereo unspecified),inactive: 6.4%
19,CN1CCN(CCOC(=O)C(O)(c2ccccc2)c2ccccc2)CC1,inactive: 6.89%
20,COc1ccc(NC2CCN(C(=O)OC(C)(C)C)CC2)cc1,inactive: 2.26%
21,CC(C)c1ccc(C(=O)NCC2(N3CCOCC3)CCCCC2)cc1,inactive: 17.2%
22,O=[N+]([O-])c1cc([N+](=O)[O-])c(NCC2CCS(=O)(=O)C2)c([N+](=O)[O-])c1 (stereo unspecified),inactive: 2.4%
